The text below walks through data of patent US7495116B2, “Phospholipid derivative” (NOF Corporation, priority 2002, dated 2009).

Where only a bound is given, the exact number is not on record here.

This series is described as follows: Determination of salt tolerant effect (clouding point, evaluation as surfactant). It is filed as physicochemical. The conditions noted are these: 1 weight % solution in 5 weight % aqueous sodium sulfate. As for the experimental part:
Clouding point of the polyoxyethylene pentaerythritol ether (average molecular weight: 2000)-mono-distearoylphosphadylethanolamine obtained in Synthesis Example 1 was measured for a 1 weight % solution in 5 weight % aqueous sodium sulfate. As a result of the measurement, the clouding point was not detectable even when the temperature was raised up to 80° C.
Clouding point of the monomethylpolyoxyethylenecarbamyl (molecular weight: 2000) distearoylphosphatidylethanolamine obtained in Comparative Synthesis Example 1 was measured in the same manner as in Example 3.

Turning to “Polyoxyethylene Pentaerythritol Ether (Average Molecular Weight: 2000)-mono-distearoylphosphadylethanolamine Succinate [Synthesis Example 1]”, the Clouding point is greater than 80 °C.
